According to ChEMBL document CHEMBL1649505, “Activity of telavancin against Staphylococcus aureus strains with various vancomycin susceptibilities in an in vitro pharmacokinetic/pharmacodynamic model with simulated endocardial vegetations” (Antimicrob Agents Chemother, 2009):

Assays:
Staphylococcus aureus [1] = conditions: 1199
Staphylococcus aureus [2] = conditions: NJ992
Staphylococcus aureus [3] = conditions: 494

Measured: MIC

GENTAMICIN
0.5 µg/mL: all assays above
